From patent US20260001946A1, “TREATMENT OF A DISEASE OR CONDITION IN A TISSUE ORIGINATING FROM THE ENDODERM” (BT Bidco, Inc., priority 2018, published 2026) come the findings set out here.

Structures can show the parent of a compound that is named as a salt.

The conditions of the data set: mouse, in vivo.

As for `C[C@@H]1CCN(C(=O)CC#N)C[C@@H]1N(C)c1ncnc2[nH]ccc12` [tofacitinib citrate], the blood exposure entry is listed as “limited blood exposure”.
